In EP4793349A2:

Biological target: cation-independent mannose-6-phosphate receptor (CIMPR)
Assay: CIMPR affinity chromatography, M6P gradient elution, GAA activity of fractions

| percent of rhGAA not bound to CIMPR | Substance |
| --- | --- |
| 78% | Lumizyme® rhGAA (alglucosidase alfa) (from UniProt P10253 57-952) (enzyme) |
| 73% | Myozyme® rhGAA (alglucosidase alfa) (from UniProt P10253 57-952) (enzyme) |
